Laboratory results published in patent US20090048196A1, “Membrane receptor for retinol binding protein mediates cellular uptake of vitamin A, methods of use and compositions” (THE REGENTS OF THE UNIVERSITY OF CALIFORNIA, priority 2007, published 2009).

Molecular target: bovine STRA6 (wild-type) (bovine) (UniProt Q0V8E7)
Test: cell-based or functional assay

Substance: His-tagged RBP (N-terminal 6xHis tag) (from UniProt P02753 19-201) (ligand)
- cell-free 3H-retinol uptake by membranes, share of total radioactivity in 10 minutes: 17%
- retinol taken up in 1 hour relative to moles of RBP bound to the cell surface at steady state (3 nM 3H-retinol-RBP): 4.6 times
- retinol taken up in 1 hour relative to moles of RBP bound to the cell surface at steady state (0.44 µM retinol-RBP, HPLC assay): 14 times
- retinyl ester accumulation (HPLC assay of vitamin A uptake from holo-RBP): 15 fold
- share of total radioactivity taken up from 3 nM 3H-retinol-RBP in 1 hour by COS-1 cells transfected with STRA6 and LRAT: 25%
- share of total radioactivity taken up from 3 nM 3H-retinol-RBP in 2 hours by COS-1 cells transfected with STRA6 and LRAT: 50%
